# A selection: hits, their analogues and other compounds. The true share with any hit is near 3.7%.
# ClpP mod = qHTS Assay for Activators of ClpP; Potency, µM (highest dose often 57.5 µM), for inactives: at the top dose activity change, negative = active; purified B. subtilis ClpP, FRET peptide cleavage, 20 min; ATP-dependent Clp protease proteolytic subunit (Bacillus subtilis (strain 168)), P80244; 1.9% of 340,000 active; AID 651965, 2013; active = well fitted falling curve with a large enough effect; inconclusive = small, poorly fitted or top-dose-only effect; inactive = no such curve, though single readings can be large or run the other way; also: potency is read from the fitted curve at half-maximal effect; the source files actives as falling curves though it sought activators and does not explain the sign; nearly all actives have a fitted effect of over 65% in size
#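 FRET quenching reversal measured ClpP activation: 10 microg/mL B. subtilis ClpP at pH 8 with the FRET-FV decapeptide, read at 430 nm after 320 nm excitation. The 20-min minus 0-min signal was scaled between DMSO/no-enzyme wells and ADEP (5.8 microM final).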
# miR-21 reporter = miR-21 reporter, rising signal; HeLa miR-21 FLuc reporter, luciferase, 48 h; Potency, µM (top dose mostly 38.3 µM), without a hit: at the highest dose reporter change, positive = more light; 340,000 tested, under 10 active; active = well fitted rising curve with a large enough effect; inconclusive = small, poorly fitted or top-dose-only effect; inactive = no such curve, though single readings can be large or run the other way;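 further: % of control where 0% means no effect; miR-21 action dims this reporter so a rising signal means less miR-21 action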
#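 Using DMEM plus 10% FBS, HeLa miR-21-FLuc cells are incubated with test compounds (final up to about 40uM) for 48 hours; firefly luciferase signal is then imaged following reagent-mediated lysis.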
# TCR act = activates T cell receptor signaling | 330,000 tested, under 10 active | Potency, µM (titrated, usually from 9.22 µM), for inactives: at the highest dose activation of IL-2 secretion, most hits filed as activators | primary human leukocytes, anti-CD3, IL-2 HTRF, 48 h; also: % of control where 0% means no effect
#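 IL-2 release read by HTRF sandwich (Eu cryptate donor, d2 acceptor, 665 nm emission) after 48 hr exposure of primary human leukocytes to compound together with anti-CD3 beads in the absence of co-stimulatory signals.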
# Nrf2 block = inhibitors of Nrf2 signaling; A549 ARE-Fluc reporter, luciferase luminescence, 18-24 h; Potency, µM (series often up to 46 µM), inactives show top-dose activity change, negative = inhibition, hits mostly inhibitors; 2.1% of 360,000 active; AID 504444; also: potency is read from the fitted curve at half-maximal effect; % is scaled to controls: 0 for no effect and ±100 for the full control effect; nearly all actives have a fitted effect of over 60% in size
#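 Quantitative HTS in A549 cells stably bearing an antioxidant response element-firefly luciferase construct. Inhibition of Nrf2-driven transcription was scored by luminescence after 18-24 h of compound exposure at 37 °C.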
# A549 viability = kills or reduces viability of A549 cells in Nrf2 counter-screen; 0.16% of 390,000 active; A549 ARE-Fluc cells, CellTiter-Fluor viability, 18-24 h; AID 504648; Potency, µM (series often up to 46 µM), inactives show top-dose activity change, negative = cytotoxicity, hits mostly inhibitors; also: potency is read from the fitted curve at half-maximal effect; % is scaled to controls: 0 for no effect and ±100 for the full control effect
#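 A549 ARE_Fluc cells in 5% FBS OPTI-MEM were exposed to compounds in concentration-response for 18-24 h at 37 deg C. Viability was read by CellTiter-Fluor fluorescence (Ex 405/Em 525) after 30 min, before the luciferase read.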
# Nrf2 ARE act = activates Nrf2 signaling. AREc32 ARE-luciferase reporter (MCF7-derived line), luminescence, 24 h. Potency, µM (highest dose often 46.1 µM), inactives show top-dose activation, actives largely listed as activators. 0.31% of 410,000 active; also: potency is read from the fitted curve at half-maximal effect; % of control where 0% means no effect; nearly all actives have a fitted effect of over 65% in size
#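 For detection, Steady-Glo was added and plates sat 30 min at RT; before that, AREc32_Fluc cells grown overnight in OPTI-MEM/5% FBS had been treated with 23 nL compound for 24 hr at 37 deg C.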
# Starred values were filed as active, the others as inactive; ? = inconclusive; . = no result. Unless noted, calls follow the shape of the dose curve; as a rule, active = well fitted curve in the direction sought with a large enough effect; inconclusive = small, poorly fitted or top-dose-only effect, or another doubt; inactive = no such curve, though single readings can be large; an effect the other way counts as inactive or inconclusive.
item | structure | ClpP mod | miR-21 reporter | TCR act | Nrf2 block | A549 viability | Nrf2 ARE act
1 | COc1ccc(OC)c(CC(=O)Nc2cc(S(=O)(=O)N3CCCCC3)ccc2C)c1 | -3% | . | 0% | 21µM* | -17% | 0%
2 | Cc1ccc(NS(=O)(=O)c2cc3c(cc2N2CCCCC2)NC(=O)CC3)cc1C | . | . | . | ? | -17% | .
3 | CC1=CC(C)(C)Nc2ccc(OC(=O)C(C)N3C(=O)c4ccccc4C3=O)cc21 (centres undefined) | 4% | ? | -1% | 26µM* | 1% | -1%
4 | COc1ccc(OC(=O)C(C)N2C(=O)c3ccccc3C2=O)cc1 (centres undefined) | -1% | -6% | 5% | 4% | 1% | 0%
5 | O=[N+]([O-])c1cccc(-c2cnc3ccccc3n2)c1 | -2% | -1% | -10% | ? | 6% | 6.3µM*
6 | O=C(COc1ccccc1)N=C1SC2CS(=O)(=O)CC2N1c1ccc(F)cc1F (centres undefined) | 1% | -2% | -1% | 3% | 3% | 0%
7 | COc1ccc(C(=O)NC(C(=O)N2CCN(C/C=C/c3ccccc3)CC2)C(C)C)cc1 (centres undefined) | 0% | . | . | . | . | -1%
8 | CC(C)[C@H](NC(=O)c1ccc([N+](=O)[O-])cc1Cl)C(=O)N1CCN(C/C=C/c2ccccc2)CC1 | . | . | -8% | 23µM* | ? | 6%

# Other results.
item | structure | ClpP mod | miR-21 reporter | TCR act | Nrf2 block | A549 viability | Nrf2 ARE act
9 | O=C(Nc1nccs1)C1CCN(S(=O)(=O)c2ccc(F)cc2)CC1 | 1% | 9% | 6% | 11% | 2% | 0%
10 | O=C(Nc1nccs1)C1CCN(S(=O)(=O)c2c(Cl)cccc2Cl)CC1 | -2% | 14% | 1% | 16µM* | -12% | 0%
11 | Cc1csc(NC(=O)C(C)N2C(=O)c3ccccc3S2(=O)=O)n1 (centres undefined) | 1% | -1% | -3% | 24% | 1% | 0%
12 | COc1cc(O)c(CC=C(C)C)c(O)c1C(=O)CCc1ccc(O)cc1 | -3% | 10% | -2% | 26µM* | ? | -1%
13 | O=C(CCc1ccc(O)cc1)c1c(O)cc(O)cc1O | 1% | -1% | 5% | 22% | -4% | 13%
14 | CNC(=O)C[C@H]1C(=O)N(c2ccc(OC)cc2)C[C@@H]1CSC | -2% | . | . | . | . | 0%
15 | O=C1C=C(c2ccc(F)cc2OCc2ccccc2)C[C@@H](c2ccc(Cl)cc2)C1 | 0% | . | 5% | -16% | -1% | -1%
16 | CCCc1ccc(C(C)NC(=S)NCc2ccc(F)cc2)cc1 (centres undefined) | -1% | ? | -5% | ? | 0% | 2%

# Records 14 through 15, quoted:
item | structure | ClpP mod | miR-21 reporter | TCR act | Nrf2 block | A549 viability | Nrf2 ARE act
14 | CNC(=O)C[C@H]1C(=O)N(c2ccc(OC)cc2)C[C@@H]1CSC | -2% | . | . | . | . | 0%
15 | O=C1C=C(c2ccc(F)cc2OCc2ccccc2)C[C@@H](c2ccc(Cl)cc2)C1 | 0% | . | 5% | -16% | -1% | -1%

# (listing goes on)
item | structure | ClpP mod | miR-21 reporter | TCR act | Nrf2 block | A549 viability | Nrf2 ARE act
17 | CCC(C)c1ccc(C(C)NC(=S)NCc2ccc(F)cc2)cc1 (centres undefined) | -4% | ? | 5% | 15µM* | -21% | 1%
18 | NC(=O)CSC1=Nc2ccccc2C2=NC(c3ccccc3)C(=O)N12 (centres undefined) | . | 0% | 3% | 17% | 1% | 4%
19 | CCN(CC)C(=O)CSC1=Nc2ccccc2C2=NC(c3ccccc3)C(=O)N12 (centres undefined) | 16µM* | -6% | 4% | 12% | 7% | 3%
20 | CC(C)C1N=C2c3ccccc3N=C(SCC(=O)NCCc3ccc(S(N)(=O)=O)cc3)N2C1=O (centres undefined) | 32µM* | 5% | -14% | ? | -2% | 0%
21 | CC(C)C1N=C2c3ccccc3N=C(SCC(=O)NCc3ccc(Cl)cc3)N2C1=O (centres undefined) | 4% | 0% | . | . | -2% | -1%
22 | CCC(C)NC(=O)CSC1=Nc2ccccc2C2=NC(CC(=O)NCc3ccc(F)cc3)C(=O)N12 (centres undefined) | 32µM* | -1% | -17% | 8% | 13% | 0%
23 | CSc1nc(N)n2nccc2n1 | -6% | . | . | . | . | 1%
24 | CCN1C(C(=O)c2ccccc2)=C(OC(=O)COc2ccccc2)c2ccccc2S1(=O)=O | 2% | ? | . | ? | 15µM* | 0%

[25] CCCCN1C(C(=O)c2ccccc2)=C(OC(=O)CC)c2ccccc2S1(=O)=O
[26] CCCCC(=O)OC1=C(C(=O)c2ccccc2)N(CCC)S(=O)(=O)c2ccccc21
[27] CCCCCN1C(C(=O)c2ccccc2)=C(NC(C)=O)c2ccccc2S1(=O)=O
[28] CCCCCN1C(C(=O)c2ccccc2)=C(OC(=O)CC)c2ccccc2S1(=O)=O
[29] CCCN1C(C(=O)c2ccccc2)=C(OC(=O)c2ccc(C)cc2)c2ccccc2S1(=O)=O
[30] CCCN1C(C(=O)c2ccccc2)=C(OC(=O)c2ccc(F)cc2)c2ccccc2S1(=O)=O
[31] CC1(c2nc3ccccc3[nH]2)CCC(=O)N1Cc1cccs1 (centres undefined)
[32] CCc1cc[n+](CC(=O)c2ccc(F)cc2)cc1C(=O)O

assay / entry	25	26	27	28	29	30	31	32
ClpP mod	-2%	-2%	-1%	0%	-1%	0%	1%	1%
miR-21 reporter	?	?	20%	?	?	?	.	.
TCR act	.	.	.	.	.	.	.	.
Nrf2 block	21µM*	?	?	5.8µM*	23µM*	?	.	.
A549 viability	?	?	?	?	?	?	.	.
Nrf2 ARE act	-3%	-1%	1%	-2%	-2%	-1%	-1%	.

[33] COc1ccccc1NS(=O)(=O)c1ccc(C(=O)N2CCCC(C(F)(F)F)C2)cc1 (centres undefined)
[34] COc1ccccc1NS(=O)(=O)c1ccc(C(=O)N2CCCC(C)C2)cc1 (centres undefined)
[35] CC1CCN(S(=O)(=O)c2ccc(C(=O)N3CCCC(C(F)(F)F)C3)cc2)CC1 (centres undefined)
[36] O=C(c1ccc(S(=O)(=O)N2CCCCCC2)cc1)N1CCCC(C(F)(F)F)C1 (centres undefined)
[37] COc1cc2c(C#CCCCO)c(-c3ccc(C#N)cc3)oc(=O)c2cc1OC
[38] O=C(c1ccc2c(c1)N(Cc1ccc(F)cc1)C(=O)c1ccccc1S2=O)N1CCC(Cc2ccccc2)CC1 (centres undefined)
[39] O=C(c1ccc2c(c1)N(Cc1ccccc1)C(=O)c1ccccc1S2=O)N1CCC(Cc2ccccc2)CC1 (centres undefined)
[40] CCSc1ccc([C@@H]2[C@H]3C(=O)N(C)C(=O)[C@H]3[C@]3(C(=O)OC)CCCCN23)cc1OC

assay / entry	33	34	35	36	37	38	39	40
ClpP mod	-1%	1%	.	1%	14µM*	1%	4%	-4%
miR-21 reporter	.	-2%	.	.	.	?	?	.
TCR act	3%	-3%	-12%	-2%	0%	.	.	0%
Nrf2 block	23µM*	8%	21µM*	-9%	-6%	23µM*	?	?
A549 viability	-8%	-6%	-14%	-3%	-3%	-24%	-22%	-10%
Nrf2 ARE act	0%	0%	0%	0%	4%	1%	1%	0%

# Taken from above.
# A549 viability with COc1ccc(OC(=O)C(C)N2C(=O)c3ccccc3C2=O)cc1 (centres undefined) reads 1%
# Nrf2 block with O=C(c1ccc(S(=O)(=O)N2CCCCCC2)cc1)N1CCCC(C(F)(F)F)C1 (centres undefined) reads -9%
# ClpP mod with O=C(Nc1nccs1)C1CCN(S(=O)(=O)c2ccc(F)cc2)CC1 reads 1%

# Nrf2 ARE act: hit marks shown above.
no. | molecule | ClpP mod | miR-21 reporter | TCR act | Nrf2 block | Nrf2 ARE act
5 | O=[N+]([O-])c1cccc(-c2cnc3ccccc3n2)c1 | -2% | -1% | -10% | ? | 6.3µM*
